From patent US7186726B2 come the findings set out here.

Protein sequences, listed by entry. Tags and fused reporters are not part of them. Lines headed by an entry give the natural chain unless they say otherwise; changes in a name come on top. Residues count along the entry.
UniProt Q02294, whole entry: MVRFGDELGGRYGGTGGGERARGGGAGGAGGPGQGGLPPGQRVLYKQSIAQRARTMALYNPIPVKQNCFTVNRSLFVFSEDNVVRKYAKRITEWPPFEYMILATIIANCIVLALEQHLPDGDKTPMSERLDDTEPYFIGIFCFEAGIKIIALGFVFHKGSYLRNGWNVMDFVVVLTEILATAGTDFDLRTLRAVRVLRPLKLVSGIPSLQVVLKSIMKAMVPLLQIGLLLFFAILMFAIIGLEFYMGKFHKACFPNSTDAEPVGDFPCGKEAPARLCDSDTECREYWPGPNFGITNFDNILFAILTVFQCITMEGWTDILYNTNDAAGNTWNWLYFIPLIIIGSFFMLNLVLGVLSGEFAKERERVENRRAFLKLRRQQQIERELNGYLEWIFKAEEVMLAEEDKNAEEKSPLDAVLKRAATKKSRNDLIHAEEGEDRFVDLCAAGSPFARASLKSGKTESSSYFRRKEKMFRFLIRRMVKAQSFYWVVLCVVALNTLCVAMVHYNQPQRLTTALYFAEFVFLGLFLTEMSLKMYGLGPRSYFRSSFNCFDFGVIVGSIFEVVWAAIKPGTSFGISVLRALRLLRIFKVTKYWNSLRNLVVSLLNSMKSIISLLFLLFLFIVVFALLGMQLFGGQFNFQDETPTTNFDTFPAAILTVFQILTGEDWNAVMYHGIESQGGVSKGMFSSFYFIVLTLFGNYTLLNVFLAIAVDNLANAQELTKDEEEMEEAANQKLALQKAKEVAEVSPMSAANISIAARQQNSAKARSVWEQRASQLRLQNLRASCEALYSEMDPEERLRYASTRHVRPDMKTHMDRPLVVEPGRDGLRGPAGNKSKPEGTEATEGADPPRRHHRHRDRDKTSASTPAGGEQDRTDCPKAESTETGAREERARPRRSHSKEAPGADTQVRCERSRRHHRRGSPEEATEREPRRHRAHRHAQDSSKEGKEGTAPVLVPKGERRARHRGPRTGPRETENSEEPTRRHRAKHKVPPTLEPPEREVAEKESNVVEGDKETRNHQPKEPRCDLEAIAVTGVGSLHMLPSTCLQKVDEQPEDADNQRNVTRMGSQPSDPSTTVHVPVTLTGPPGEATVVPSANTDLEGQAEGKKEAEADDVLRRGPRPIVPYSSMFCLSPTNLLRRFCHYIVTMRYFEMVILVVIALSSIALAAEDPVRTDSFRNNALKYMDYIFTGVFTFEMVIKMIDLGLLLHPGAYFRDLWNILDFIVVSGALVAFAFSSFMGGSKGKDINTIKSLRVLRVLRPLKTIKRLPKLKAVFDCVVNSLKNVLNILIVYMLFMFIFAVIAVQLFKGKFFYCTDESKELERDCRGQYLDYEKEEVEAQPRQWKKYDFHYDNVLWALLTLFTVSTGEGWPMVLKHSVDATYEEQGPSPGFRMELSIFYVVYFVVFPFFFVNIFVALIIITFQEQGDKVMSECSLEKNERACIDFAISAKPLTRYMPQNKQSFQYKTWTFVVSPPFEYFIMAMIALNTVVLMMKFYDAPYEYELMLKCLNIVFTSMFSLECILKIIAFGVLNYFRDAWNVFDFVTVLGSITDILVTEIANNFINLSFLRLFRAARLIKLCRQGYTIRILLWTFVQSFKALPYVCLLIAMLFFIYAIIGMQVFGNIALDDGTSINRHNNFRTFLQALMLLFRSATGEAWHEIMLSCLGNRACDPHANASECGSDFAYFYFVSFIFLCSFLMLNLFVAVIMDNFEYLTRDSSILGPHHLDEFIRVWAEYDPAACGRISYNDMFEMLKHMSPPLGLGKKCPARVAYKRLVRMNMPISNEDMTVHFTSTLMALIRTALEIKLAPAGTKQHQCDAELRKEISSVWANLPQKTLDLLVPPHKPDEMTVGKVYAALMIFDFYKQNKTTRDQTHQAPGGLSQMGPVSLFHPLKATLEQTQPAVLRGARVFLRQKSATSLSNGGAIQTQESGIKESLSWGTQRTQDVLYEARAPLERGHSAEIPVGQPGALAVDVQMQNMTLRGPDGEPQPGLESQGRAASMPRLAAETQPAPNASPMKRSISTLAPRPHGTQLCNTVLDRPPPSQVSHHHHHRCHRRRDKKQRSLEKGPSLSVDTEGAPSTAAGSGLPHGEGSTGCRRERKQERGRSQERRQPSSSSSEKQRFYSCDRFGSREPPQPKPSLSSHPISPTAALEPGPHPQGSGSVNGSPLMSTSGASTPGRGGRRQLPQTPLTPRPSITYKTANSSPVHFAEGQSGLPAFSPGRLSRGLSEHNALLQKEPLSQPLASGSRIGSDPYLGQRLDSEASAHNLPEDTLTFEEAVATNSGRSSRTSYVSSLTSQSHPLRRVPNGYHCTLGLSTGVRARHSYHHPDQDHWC
UniProt O43497, whole entry: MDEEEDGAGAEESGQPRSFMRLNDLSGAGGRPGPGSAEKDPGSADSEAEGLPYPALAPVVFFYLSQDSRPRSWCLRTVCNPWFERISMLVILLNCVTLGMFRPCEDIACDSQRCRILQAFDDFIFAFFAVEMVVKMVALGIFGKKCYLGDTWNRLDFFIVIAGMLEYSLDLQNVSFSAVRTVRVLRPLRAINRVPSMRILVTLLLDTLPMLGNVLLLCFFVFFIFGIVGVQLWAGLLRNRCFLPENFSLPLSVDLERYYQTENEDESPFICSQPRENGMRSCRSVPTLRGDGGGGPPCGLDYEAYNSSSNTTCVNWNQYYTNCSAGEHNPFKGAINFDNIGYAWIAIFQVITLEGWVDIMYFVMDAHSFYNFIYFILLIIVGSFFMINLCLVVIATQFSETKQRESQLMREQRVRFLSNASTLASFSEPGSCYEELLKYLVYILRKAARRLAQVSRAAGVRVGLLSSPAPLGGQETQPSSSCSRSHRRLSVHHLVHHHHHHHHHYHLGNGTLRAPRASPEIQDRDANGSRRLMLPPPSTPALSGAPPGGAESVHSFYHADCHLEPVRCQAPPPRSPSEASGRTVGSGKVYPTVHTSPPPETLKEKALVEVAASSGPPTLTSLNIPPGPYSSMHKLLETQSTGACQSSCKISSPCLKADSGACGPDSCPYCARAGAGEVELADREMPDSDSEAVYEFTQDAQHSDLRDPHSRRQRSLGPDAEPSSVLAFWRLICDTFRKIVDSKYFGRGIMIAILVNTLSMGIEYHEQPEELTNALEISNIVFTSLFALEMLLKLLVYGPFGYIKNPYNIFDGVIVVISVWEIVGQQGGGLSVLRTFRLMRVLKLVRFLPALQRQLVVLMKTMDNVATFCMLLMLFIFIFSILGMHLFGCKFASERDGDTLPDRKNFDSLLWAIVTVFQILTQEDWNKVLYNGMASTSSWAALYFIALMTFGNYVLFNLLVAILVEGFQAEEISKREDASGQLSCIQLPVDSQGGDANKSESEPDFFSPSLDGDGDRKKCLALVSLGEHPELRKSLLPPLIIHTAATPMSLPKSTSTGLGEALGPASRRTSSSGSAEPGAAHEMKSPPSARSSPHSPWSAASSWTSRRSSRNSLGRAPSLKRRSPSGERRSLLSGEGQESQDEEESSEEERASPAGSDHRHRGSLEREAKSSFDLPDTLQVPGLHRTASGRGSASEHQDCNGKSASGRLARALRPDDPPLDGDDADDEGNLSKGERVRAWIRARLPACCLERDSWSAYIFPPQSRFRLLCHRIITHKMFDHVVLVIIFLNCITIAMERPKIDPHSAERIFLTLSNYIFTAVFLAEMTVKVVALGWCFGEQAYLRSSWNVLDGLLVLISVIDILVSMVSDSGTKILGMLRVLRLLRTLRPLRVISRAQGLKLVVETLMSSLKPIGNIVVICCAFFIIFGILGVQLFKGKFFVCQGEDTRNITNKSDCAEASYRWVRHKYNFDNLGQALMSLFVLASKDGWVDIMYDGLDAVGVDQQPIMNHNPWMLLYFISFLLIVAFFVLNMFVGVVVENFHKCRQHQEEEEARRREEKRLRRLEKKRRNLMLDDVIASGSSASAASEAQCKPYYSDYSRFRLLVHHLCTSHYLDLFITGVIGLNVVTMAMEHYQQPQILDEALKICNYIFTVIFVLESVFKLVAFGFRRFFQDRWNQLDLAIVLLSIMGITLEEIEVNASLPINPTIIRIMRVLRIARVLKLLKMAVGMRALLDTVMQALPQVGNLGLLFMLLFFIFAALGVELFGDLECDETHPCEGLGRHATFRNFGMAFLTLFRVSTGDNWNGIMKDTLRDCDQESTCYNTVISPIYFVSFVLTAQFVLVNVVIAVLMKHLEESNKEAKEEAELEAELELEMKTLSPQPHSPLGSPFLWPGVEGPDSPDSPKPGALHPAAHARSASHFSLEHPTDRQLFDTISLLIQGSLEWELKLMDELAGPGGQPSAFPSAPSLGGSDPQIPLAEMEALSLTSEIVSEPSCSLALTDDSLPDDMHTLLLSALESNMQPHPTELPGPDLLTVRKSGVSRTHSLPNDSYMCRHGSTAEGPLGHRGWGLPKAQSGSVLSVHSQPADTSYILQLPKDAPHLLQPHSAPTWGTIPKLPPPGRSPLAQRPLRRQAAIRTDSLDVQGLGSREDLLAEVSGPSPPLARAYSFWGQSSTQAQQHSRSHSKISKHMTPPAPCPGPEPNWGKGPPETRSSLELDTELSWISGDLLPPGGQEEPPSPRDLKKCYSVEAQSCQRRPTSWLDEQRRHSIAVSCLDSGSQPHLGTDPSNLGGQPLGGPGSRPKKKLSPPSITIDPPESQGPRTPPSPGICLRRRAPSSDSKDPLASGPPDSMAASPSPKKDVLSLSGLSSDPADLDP
UniProt P54283, whole entry partner: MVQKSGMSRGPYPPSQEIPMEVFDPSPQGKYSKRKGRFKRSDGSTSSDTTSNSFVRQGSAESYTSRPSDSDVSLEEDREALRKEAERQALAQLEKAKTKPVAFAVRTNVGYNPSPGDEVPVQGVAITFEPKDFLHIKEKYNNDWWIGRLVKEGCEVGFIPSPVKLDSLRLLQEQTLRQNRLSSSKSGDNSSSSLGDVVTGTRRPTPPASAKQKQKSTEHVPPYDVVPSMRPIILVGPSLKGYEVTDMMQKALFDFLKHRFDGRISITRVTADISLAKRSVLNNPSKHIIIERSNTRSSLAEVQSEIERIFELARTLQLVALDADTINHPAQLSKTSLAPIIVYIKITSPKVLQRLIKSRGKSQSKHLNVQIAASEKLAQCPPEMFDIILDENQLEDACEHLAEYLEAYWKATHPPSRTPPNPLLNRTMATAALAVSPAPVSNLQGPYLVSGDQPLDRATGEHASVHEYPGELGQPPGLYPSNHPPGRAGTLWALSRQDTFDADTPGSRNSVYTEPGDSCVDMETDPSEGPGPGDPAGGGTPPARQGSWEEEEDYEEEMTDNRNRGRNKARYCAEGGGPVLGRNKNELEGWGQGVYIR
UniProt P54290, 25-944 partner limits assumed: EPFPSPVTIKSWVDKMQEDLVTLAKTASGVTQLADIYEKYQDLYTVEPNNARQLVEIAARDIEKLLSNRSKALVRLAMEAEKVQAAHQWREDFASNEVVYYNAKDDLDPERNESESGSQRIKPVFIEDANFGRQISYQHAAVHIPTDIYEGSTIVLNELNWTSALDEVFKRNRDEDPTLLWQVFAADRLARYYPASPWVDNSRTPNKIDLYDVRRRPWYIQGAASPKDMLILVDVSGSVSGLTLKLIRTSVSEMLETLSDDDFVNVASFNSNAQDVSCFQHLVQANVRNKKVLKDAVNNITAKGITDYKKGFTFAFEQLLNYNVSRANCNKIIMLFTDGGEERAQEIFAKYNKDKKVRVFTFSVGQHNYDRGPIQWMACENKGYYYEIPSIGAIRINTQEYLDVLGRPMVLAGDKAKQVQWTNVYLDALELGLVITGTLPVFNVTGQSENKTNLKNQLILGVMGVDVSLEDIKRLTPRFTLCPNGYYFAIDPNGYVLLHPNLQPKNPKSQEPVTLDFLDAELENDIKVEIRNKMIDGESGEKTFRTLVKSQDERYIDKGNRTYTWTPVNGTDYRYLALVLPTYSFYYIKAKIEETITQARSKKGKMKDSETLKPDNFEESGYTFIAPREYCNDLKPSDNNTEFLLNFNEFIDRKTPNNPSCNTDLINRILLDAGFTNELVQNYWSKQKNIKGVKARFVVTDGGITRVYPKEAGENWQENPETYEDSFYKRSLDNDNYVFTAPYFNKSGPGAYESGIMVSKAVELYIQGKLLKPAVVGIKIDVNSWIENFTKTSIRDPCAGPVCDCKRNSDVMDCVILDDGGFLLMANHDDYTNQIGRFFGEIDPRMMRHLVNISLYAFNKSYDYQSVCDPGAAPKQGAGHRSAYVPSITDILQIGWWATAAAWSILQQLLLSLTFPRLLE
UniProt P54290, 945-1091 partner limits assumed: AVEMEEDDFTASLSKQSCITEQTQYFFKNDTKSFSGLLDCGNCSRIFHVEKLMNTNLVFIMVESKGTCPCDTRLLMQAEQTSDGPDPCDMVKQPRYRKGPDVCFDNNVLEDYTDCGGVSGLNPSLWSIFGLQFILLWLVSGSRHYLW

Experiment [1] has as its target rat brain N-type calcium channel (α1B+α2δ+β1b) (Rattus norvegicus, UniProt Q02294). Kind of experiment: N-type calcium channel blocking activity, whole cell patch clamp in HEK 293 cells. The following applies: read-out: Block of α1B N-type Channels IC50. (In general: The patch-clamp technique gives a direct electrical read-out from membranes.)
Experiment [2] concerns the target human α1G T-type channels (Homo sapiens, UniProt O43497). The experiment in a line: Block of α1G T-type channels, patch clamp in HEK cell lines. The following applies: for IC50: read-out: Block of α1G T-type Channels IC50.
Experiment [3] relates to P/Q-type channels (α1A+α2δ+β1b). The experiment in a line: Selective calcium channel blocking activity, whole cell patch recordings, P/Q-type. The following applies: read-out: P/Q-type IC50; 0.1 Hz, 5 mM Ba2+.
Experiment [4] concerns the target rat α1B+α2b+β1b channels (N-type channels) (Rattus norvegicus, UniProt Q02294). The experiment in a line: Selective calcium channel blocking activity, whole cell patch recordings, N-type. The conditions noted are these: for IC50: read-out: N-type IC50, 0.1 Hz, 5 mM Ba2+.
The subject of experiment [5] is L-type channels (α1C+α2δ+β1b). The experiment in a line: Selective calcium channel blocking activity, whole cell patch recordings, L-type. The following applies: read-out: L-type IC50; 0.1 Hz, 5 mM Ba2+.

Read-outs that look alike come from different tables or passages of the source. A value given as a limit tells only on which side of the number the result lay.

Take `O=C(CC(c1ccccc1)c1ccccc1)N1CCN(CCOc2ccc3c(c2)OCO3)CC1`: the results for the IC50 in experiment [1] (0.067 Hz) and in experiment [1] (0.2 Hz) were 400 nM and 280 nM, respectively.

Consider `O=C(CC(c1ccccc1)c1ccccc1)N1CCN(CCOc2c(F)c(F)cc(F)c2F)CC1`, for which the figures for the IC50 in experiment [1] (0.067 Hz) and in experiment [1] (0.2 Hz) were 313 nM and 266 nM, respectively.

Consider `CCCN(CCC)CCN1CCN(C(=O)CC(c2ccccc2)c2ccccc2)CC1`, for which the IC50 in experiment [1] (0.067 Hz) was 554 nM; in experiment [1] (0.2 Hz) it was 413 nM.

For `CN1CCCC(CN2CCN(C(=O)CC(c3ccccc3)c3ccccc3)CC2)C1` (stereo not shown), the IC50 is 500 nM in experiment [1] (0.067 Hz) and 300 nM in experiment [1] (0.2 Hz).

For the compound `O=C(CC(c1ccccc1)c1ccccc1)N1CCN(c2ccc(-c3ccccc3)cc2)CC1`, the IC50 in experiment [1] (0.067 Hz) was determined as 314 nM; in experiment [1] (0.2 Hz), 174 nM.

As for `O=C(CC(c1ccccc1)c1ccccc1)N1CCN(c2cc(Cl)cc(Cl)c2)CC1`, the results for the IC50 in experiment [2] (−100 mV), in experiment [1] (0.067 Hz) and in experiment [1] (0.2 Hz) were 154 nM, 280 nM and 180 nM, respectively.

`O=C(CC(c1ccccc1)c1ccccc1)N1CCN(C(c2ccc(F)cc2)C2CC2)CC1` (stereo not shown): the IC50 in experiment [1] (0.067 Hz) came out at 520 nM; in experiment [1] (0.2 Hz) it was 430 nM.

`COc1cc(C(=O)NCCN2CCN(C(=O)CC(c3ccccc3)c3ccccc3)CC2)cc(OC)c1OC`: the results for the IC50 in experiment [1] (0.067 Hz) and in experiment [1] (0.2 Hz) were 421 nM and 275 nM, respectively.

`O=C(CC(c1ccccc1)c1ccccc1)N1CCN(c2nc3ccccc3n2Cc2ccccc2)CC1`: the IC50 in experiment [2] (−80 mV) worked out at 2.2 nM; in experiment [2] (−100 mV), 8.8 nM; in experiment [1] (0.067 Hz), 240 nM; in experiment [1] (0.2 Hz) it was 180 nM.

As to `CN1CCC(CN2CCN(C(=O)CC(c3ccccc3)c3ccccc3)CC2)CC1`, the IC50 turned out to be 2450 nM in experiment [3]; 190 nM in experiment [1] (0.067 Hz); 130 nM in experiment [1] (0.2 Hz); 257 nM in experiment [4]; 30000 nM in experiment [5]. In experiment [4] (FIGS. 2 and 3), the “selectivity for N-type versus P/Q-type and L-type channels” value is given as “selectively block N-type channels”.

For `Cc1cc(OCCN2CCN(C(=O)CC(c3ccccc3)c3ccccc3)CC2)c(C)c(C)c1NC(=O)OC(C)(C)C`, the IC50 was 450 nM in experiment [1] (0.067 Hz) and 350 nM in experiment [1] (0.2 Hz).

Take `CC(c1ccccc1)N1CCN(C(=O)CC(c2ccccc2)c2ccccc2)CC1` (stereo not shown): the IC50 was 660 nM in experiment [1] (0.067 Hz) and 480 nM in experiment [1] (0.2 Hz).

Regarding `C[Si](C)(C)c1ccc(N2CCN(C(=O)CC(c3ccccc3)c3ccccc3)CC2)cc1`, the IC50 in experiment [1] (0.067 Hz) came to 361 nM; in experiment [1] (0.2 Hz), 298 nM.

Consider `Cc1cccc(C)c1NC(=O)CN1CCN(C(=O)CC(c2ccccc2)c2ccccc2)CC1`, for which the IC50 in experiment [1] (0.067 Hz) and in experiment [1] (0.2 Hz) was greater than 1000 nM throughout.

`O=C(CC(c1ccccc1)c1ccccc1)N1CCN(CCOc2ccc(Cl)cc2Cl)CC1`: the results for the IC50 in experiment [1] (0.067 Hz) and in experiment [1] (0.2 Hz) were 364 nM and 308 nM, respectively.

Turning to `O=C(CC(c1ccccc1)c1ccccc1)N1CCN(C2CCCCCC2)CC1`, the IC50 turned out to be 430 nM in experiment [1] (0.067 Hz) and 240 nM in experiment [1] (0.2 Hz).

Take `CCC(C)N1CCN(C(=O)CC(c2ccccc2)c2ccccc2)CC1` (stereo not shown): the IC50 in experiment [1] (0.067 Hz) worked out at 261 nM; in experiment [1] (0.2 Hz) it was 217 nM.

Take `COc1cc(OCCN2CCN(C(=O)CC(c3ccccc3)c3ccccc3)CC2)cc(OC)c1OC`: the IC50 in experiment [1] (0.067 Hz) is 520 nM; in experiment [1] (0.2 Hz) it was 360 nM.

As for `CCCCCCCN1CCN(C(=O)CC(c2ccccc2)c2ccccc2)CC1`, the results for the IC50 in experiment [1] (0.067 Hz) and in experiment [1] (0.2 Hz) were 376 nM and 224 nM, respectively.

Turning to `Cc1ccc(N2CCN(C(=O)CC(c3ccccc3)c3ccccc3)CC2)cc1C`, in experiment [2] (−100 mV), the “Block of α1G T-type Channels IC50” value was “No effect”. Besides, the IC50 in experiment [1] (0.067 Hz) was 370 nM; in experiment [1] (0.2 Hz), 290 nM.

For `O=C(CC(c1ccccc1)c1ccccc1)N1CCN(CCOc2ccc(F)cc2F)CC1`, the IC50 in experiment [1] (0.067 Hz) worked out at 597 nM; in experiment [1] (0.2 Hz), 398 nM.

Take `Cc1cc(OCCN2CCN(C(=O)CC(c3ccccc3)c3ccccc3)CC2)c(C)c(C)c1N`: the IC50 in experiment [1] (0.067 Hz, tested form: 2HCl) worked out at 670 nM; in experiment [1] (0.2 Hz, tested form: 2HCl), 420 nM.

Regarding `CN(C(=O)CN1CCN(C(=O)CC(c2ccccc2)c2ccccc2)CC1)c1ccccc1`, the IC50 in experiment [1] (0.067 Hz) was 471 nM; in experiment [1] (0.2 Hz), 295 nM.

As for `O=C(CC(c1ccccc1)c1ccccc1)N1CCN(c2ccc(Cc3ccc(F)cc3)cc2)CC1`, the IC50 in experiment [1] (0.067 Hz) amounted to 240 nM; in experiment [1] (0.2 Hz), 320 nM.

For the compound `O=C(CC(c1ccccc1)c1ccccc1)N1CCN(CCOc2ccc(F)cc2)CC1`, the “Block of α1G T-type Channels IC50” value in experiment [2] (−100 mV) is on record as “No effect”. The values for the IC50 in experiment [1] (0.067 Hz) and in experiment [1] (0.2 Hz) were 349 nM and 282 nM, respectively.

With `O=C(CC(c1ccccc1)c1ccccc1)N1CCN(c2cccc(Cl)c2Cl)CC1`, the IC50 in experiment [2] (−100 mV) amounted to 905 nM; in experiment [1] (0.067 Hz), 650 nM; in experiment [1] (0.2 Hz) it was 410 nM.

Turning to `O=C(CC(c1ccccc1)c1ccccc1)N1CCN(C(c2ccccc2)c2cccs2)CC1` (stereo not shown), the values for the IC50 in experiment [1] (0.067 Hz) and in experiment [1] (0.2 Hz) were 290 nM and 150 nM, respectively.

With `COc1ccc(OCCN2CCN(C(=O)CC(c3ccccc3)c3ccccc3)CC2)cc1`, the IC50 turned out to be 183 nM in experiment [1] (0.067 Hz) and 135 nM in experiment [1] (0.2 Hz).

As to `O=C(CC(c1ccccc1)c1ccccc1)N1CCN(CCNc2ccccc2)CC1`, the “Block of α1G T-type Channels IC50” value in experiment [2] (−100 mV) is given as “No effect”. Besides, the IC50 in experiment [1] (0.067 Hz) is 3550 nM; in experiment [1] (0.2 Hz) it was 601 nM.

Regarding `COc1ccc(OCCN2CCN(C(=O)CC(c3ccccc3)c3ccccc3)CC2)cc1OC`, the IC50 amounted to 1090 nM in experiment [1] (0.067 Hz) and 800 nM in experiment [1] (0.2 Hz).

Regarding `O=C(CC(c1ccccc1)c1ccccc1)N1CCN(Cc2cccc3ccccc23)CC1`, the IC50 in experiment [1] (0.067 Hz) turned out to be 263 nM; in experiment [1] (0.2 Hz), 130 nM.

`CC(C)N1CCN(C(=O)CC(c2ccccc2)c2ccccc2)CC1`: the results for the IC50 in experiment [1] (0.067 Hz) and in experiment [1] (0.2 Hz) were 715 nM and 371 nM, respectively.

As for `C=CCN(CC=C)CCN1CCN(C(=O)CC(c2ccccc2)c2ccccc2)CC1`, the IC50 in experiment [1] (0.067 Hz) was found to be 350 nM; in experiment [1] (0.2 Hz), 288 nM.

As for `CC(C)(C)c1cc(CN2CCN(C(=O)CC(c3ccccc3)c3ccccc3)CC2)cc(C(C)(C)C)c1O`, the IC50 turned out to be 387 nM in experiment [1] (0.067 Hz) and 292 nM in experiment [1] (0.2 Hz).

Turning to `CN(C)CCCN1CCN(C(=O)CC(c2ccccc2)c2ccccc2)CC1`, the IC50 in experiment [3] was found to be 6450 nM; in experiment [1] (0.067 Hz), 249 nM; in experiment [1] (0.2 Hz) it was 159 nM; in experiment [4], 214 nM.

Turning to `CCC(CC)N1CCN(C(=O)CC(c2ccccc2)c2ccccc2)CC1`, the figures for the IC50 in experiment [1] (0.067 Hz) and in experiment [1] (0.2 Hz) were 534 nM and 321 nM, respectively.
